Assay results taken from patent US4845077A, “Method of inducing ovulation” (Serono Laboratories, Inc., priority 1987, dated 1989).

Tests used:
[1] = test system: normal cynomolgus monkeys; assay: GnRH antagonist plus fixed gonadotropin regimen (FSH/LH or FSH only) followed by hCG; type: in vivo
Description: The GnRH antagonist (Ac-pClPhe^1,pClPhe^2, DTrp^3, DArg^6, DAla^10)GnRH HCl, was administered to 20 normal cynomolgus monkeys (1.0 mg/kg/day) in order to eliminate endogeneous pituitary FSH and LH secretion. Superimposed on this treatment, 15 of the monkeys were administered a human menopausal gonadotropin preparation containing approximately equal amounts of FSH and LH and five monkeys were administered FSH only to stimulate ovarian follicular maturation. Control groups received either the combined exogeneous gonadotropins or FSH only (15 monkeys each group). All of the groups received a fixed regimen of gonadotropin therapy for seven consecutive days (25 IU/day/im, cycle days 3-9) followed by hCG (1,000 IU/im) on cycle day 10.

[2] = test system: adult female cynomolgus monkeys; type: in vivo, Macaca fascicularis
Description: Eleven adult female cynomolgus monkeys (Macaca fascicularis) were selected for study based on records indicating regular menstrual cycles. The average body weight for these primates was 4.79±0.86 kg.
Counting the first day of spontaneous menses as cycle day 1, the monkeys were treated with 25 IU (im) of FSH twice daily according to three regimens. Group 1 received injections on cycle days 1-11; Group 2 on cycle days 1-4 and Group 3 on days 8-11. For all monkeys, laparoscopies were performed under ketamine anesthesia, beginning on the first day of FSH treatment and serially every 3 to 5 days thereafter to assess the status of ovarian follicular development. In order to test whether these FSH driven follicles could be ovulated, monkeys in Group 1 only received 1,000 IU (im) of hCG on day 12 and retrograde lavage of the fallopian tubes for egg collection 72 hours after hCG treatment was employed to determine whether ovulation had acutally occurred. Daily femoral blood samples were collected beginning on day 1 of the cycle and continued for 40 days or until menstruation. Sera were frozen until radioimmunoassay of LH, FSH, 17β--estradiol and progesterone.

[3] = Group 1, mid-luteal phase, after hCG
[4] = Group 3: FSH on cycle days 8-11

In the case of follicle stimulating hormone [FSH], the “maturation of ovarian follicles” value ([1]; FSH 25 IU/day im cycle days 3-9 with GnRH antagonist 1.0 mg/kg/day, in the absence of LH) is reported as “promoted maturation of multiple ovarian follicles”, the “ovulation of the follicles by hCG” value ([1]; FSH with GnRH antagonist, hCG 1,000 IU im on cycle day 10) is reported as “ovulated by hCG with subsequent recovery of two-cell embryos” and the “monkeys in which ovulation was achieved” value ([1]; control group, FSH only 25 IU/day im cycle days 3-9, hCG on day 10, no GnRH antagonist) is reported as 9 of the 15. The serum estradiol ([2]; Group 1: 25 IU im twice daily, cycle days 1-11, sustained elevation) was “about 500 pg/ml”, the “prominent follicles (multiple follicular growth)” value ([2]; Group 1, by cycle day 8-11) was 10-15 and the mean serum estradiol [2, 3] was greater than 400 pg/mL. For the same substance, the mean serum progesterone [2, 3] was “exceed 15 ng/ml”, the “serum LH and progesterone” value ([2]; Group 1, prior to hCG treatment) was “remained at basal levels” and the “egg recovery from the fallopian tubes (ovulation)” value ([2]; Group 1, retrograde lavage 72 hours after hCG) was “recovery of one or more eggs from the fallopian tubes of each female”. For the same substance, the “ovulatory stigma observed on each ovary” value ([2]; Group 1, within 48 hours after hCG 1,000 IU im on day 12) was 1-3, the LH surges ([2]; Group 2: FSH on cycle days 1-4) was “no LH surges were observed” and the ovulatory stigma ([2]; Group 2, after withdrawal of FSH, no hCG) was “No ovulatory stigma appeared”. For the same substance, the “laparoscopy appearance of the ovaries” value ([2]; Group 2, cycle day 5) was “both ovaries were enlarged with multiple vasicular follicles”, the “mean peak serum estradiol” value ([2]; Group 2, cycle days 4-6) was “exceeding 300 pg/ml” and the “onset of the luteal phase in the subsequent spontaneous ovulatory cycle” value ([2]; Group 2, serum progesterone basal until then) was 24 ± 2.4 days. For the same substance, the “mean serum estradiol concentrations” value [2, 4] was “increased abruptly”, the “monkeys with a spontaneous LH surge” value [2, 4] was “one of four” and the “circulating FSH levels after discontinuation” value ([2]; cynomolgus monkey, in vivo) was “below the limits of detection”.
